Values of other authors, collected in US20240228927A1, “MICROFLUIDIC PLATFORM FOR DETECTION OF LIVER INJURY” (Javelin Biotech, Inc., priority 2023, published 2024).

Test system: liver
Settings: liver toxicant of Table 1; cited from earlier work

SMILES: O=C(O)Cc1ccccc1Nc1c(Cl)cccc1Cl [Diclofenac]
- Mechanism of toxicity: Reactive
